One substance from patent publication US5804410 can be followed below.

In this test the target is human neutrophile elastase (human) (UniProt P08246).

Turning to α1-antitrypsin, the Inhibition (%) is 100%.
